Tested on: SNU-16 stomach tumor xenografts
Assay: Anti-tumor treatment of mice and tumor size/weight measurement
Format: in vivo
Details: 3 weeks after treatment; cisplatin 5 mg/kg i.p. once per week x2, cetuximab 1.5 mg/kg i.p. twice per week x4; p<0.05, p<0.05, p<0.001 (linear ApoPep-1 group); p<0.05, p<0.01, p<0.001 (cyclic group)
Experimental: Eight-week old female athymic (nu/nu) Balb/c mice were purchased from Orient laboratories (Seongnam, Korea) and were housed under specific-pathogen-free conditions with laboratory chow and water ad libitum. Stomach tumor xenografts were established by subcutaneously injecting 1 x 10^7 SNU-16 cells in 100 µl saline into the right flank. Tumors were allowed to reach 50–60 mm^3 of volume before randomization and initiation of treatment. Treatment of tumor-bearing mice with cisplatin and cetuximab was conducted according to a previously described protocol. […] Changes in tumor size were measured over three weeks. Diameters of tumor were measured with automatic caliper. Tumor volumes were calculated using the formula: volume = (length x width x height)/2, where length, width, and height means the longest dimension, shorter dimension parallel to the mouse body, and diameter of tumor perpendicular to the length and width, respectively. Tumor weights were measured after isolation of tumor mass.
At 3 weeks after treatment (endpoint of experiments), tumor volumes were measured and tumors were isolated for the weight measurement. The correlation between NIR fluorescence intensity and tumor volume was evaluated by the linear regression analysis using the Graphpad software. […]

“cetuximab: anti-epidermal growth factor receptor antibody” was tested, and the “tumor volumes compared to untreated control” value was “reduced tumor volumes”.
